Assay results as given in patent publication US7049289B1, “Labelled glutamine and lysine analogues” (Amersham PLC, priority 1998, dated 2006).

Assays:
[1] = molecular target: T1, fibrin (in vitro human plasma clot) (Homo sapiens, UniProt P02671+P02675+P02679); test: Incorporation into human plasma clots in vitro; assay type: biochemical
T1 construct: about 400 μl of human plasma containing the radiolabelled substrate; from tissue; host or cells: human plasma, clotted in vitro with added thrombin and calcium chloride
T1 sequence (P02671 20-644 isoform P02671-2 limits assumed): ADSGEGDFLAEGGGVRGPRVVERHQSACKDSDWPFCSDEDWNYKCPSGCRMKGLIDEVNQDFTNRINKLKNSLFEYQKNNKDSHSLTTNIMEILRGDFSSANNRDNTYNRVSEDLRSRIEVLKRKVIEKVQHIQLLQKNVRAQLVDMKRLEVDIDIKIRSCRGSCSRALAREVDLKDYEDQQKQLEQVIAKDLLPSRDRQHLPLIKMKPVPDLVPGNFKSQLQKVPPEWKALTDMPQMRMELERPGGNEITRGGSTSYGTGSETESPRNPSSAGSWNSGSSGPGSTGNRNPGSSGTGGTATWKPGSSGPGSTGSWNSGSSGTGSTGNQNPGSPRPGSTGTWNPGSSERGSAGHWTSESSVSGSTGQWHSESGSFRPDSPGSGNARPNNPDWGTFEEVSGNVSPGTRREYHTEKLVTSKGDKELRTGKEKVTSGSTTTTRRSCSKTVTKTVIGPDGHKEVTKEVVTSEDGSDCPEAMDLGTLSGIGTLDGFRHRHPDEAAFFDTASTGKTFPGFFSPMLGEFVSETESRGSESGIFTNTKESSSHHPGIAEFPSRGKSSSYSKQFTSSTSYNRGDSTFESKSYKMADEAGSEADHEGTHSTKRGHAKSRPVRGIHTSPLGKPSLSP
T1 sequence (P02675 45-491 limits assumed): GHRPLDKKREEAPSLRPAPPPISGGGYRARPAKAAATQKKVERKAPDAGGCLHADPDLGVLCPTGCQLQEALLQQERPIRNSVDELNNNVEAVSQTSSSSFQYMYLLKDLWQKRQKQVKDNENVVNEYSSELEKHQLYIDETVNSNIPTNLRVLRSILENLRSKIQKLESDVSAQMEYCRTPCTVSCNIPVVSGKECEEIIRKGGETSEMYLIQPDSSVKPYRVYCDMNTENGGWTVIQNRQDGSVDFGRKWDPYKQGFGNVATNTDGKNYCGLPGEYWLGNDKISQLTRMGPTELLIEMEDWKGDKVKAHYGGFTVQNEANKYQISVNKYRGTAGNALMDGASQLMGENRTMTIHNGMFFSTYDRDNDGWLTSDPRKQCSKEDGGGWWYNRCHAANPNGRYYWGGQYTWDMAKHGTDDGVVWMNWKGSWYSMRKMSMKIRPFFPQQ
T1 sequence (P02679 27-437 isoform P02679-2 limits assumed): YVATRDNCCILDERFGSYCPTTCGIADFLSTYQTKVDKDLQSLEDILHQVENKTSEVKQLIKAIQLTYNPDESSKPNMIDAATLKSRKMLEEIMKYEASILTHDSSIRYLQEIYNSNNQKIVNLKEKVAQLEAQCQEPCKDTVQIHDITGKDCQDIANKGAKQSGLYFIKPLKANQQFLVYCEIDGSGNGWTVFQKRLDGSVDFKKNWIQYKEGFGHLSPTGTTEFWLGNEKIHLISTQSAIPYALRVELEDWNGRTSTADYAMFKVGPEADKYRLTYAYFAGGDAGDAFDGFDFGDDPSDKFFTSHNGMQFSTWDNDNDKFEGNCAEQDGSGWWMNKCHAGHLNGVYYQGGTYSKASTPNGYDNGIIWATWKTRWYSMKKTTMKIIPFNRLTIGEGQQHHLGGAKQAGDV
Experimental: Incorporation of radiolabelled substrates into fibrin was investigated by induction of an in vitro human plasma clot in the following manner. To a siliconised 5 ml glass vial was added, (a) 800 μl of Tris(hydroxymethyl)aminomethane buffered saline pH 7.5 containing calcium chloride (50 mM Tris, 150 mM sodium chloride, 4 mM calcium chloride.), (b) about 40 μl of physiological salt solution containing 100 units of thrombin per ml, (c) about 400 μl of human plasma containing the radiolabelled substrate at a concentration of typically 10 kBq/ml. To aid induction of clot a roughened glass rod was added to the reaction vial. Control vials were prepared similarly but with the omission of thrombin and calcium chloride.
After incubation of the test solution at ambient laboratory temperature (ca. 20° C.) for 60 minutes the reaction was discontinued with the addition of about 400 μl of a cold solution of 33.5 mM ethylenediaminetetra-acetic acid disodium salt. Clots were separated from serum by vacuum filtration onto […] nitrocellulose filters (pre-soaked in 1.5% BSA/tris(hydroxymethyl)aminoethae buffered saline pH 7.5 containing 0.1% Tween 20) and washed with about 2×10 ml of tris(hydroxymethyl)aminomethane buffered saline pH 7.5 containing Tween 20 to a final concentration of 0.1% v/v. The proportion of total radioactivity was calculated by counting in suitable detection apparatus.
The fraction of radioactivity retained on the filter, after subtraction of the non-specific binding determined from the control, is a measure of incorporation into the filtered clots.

[2] = Incorporation into clots induced in a rat model (rat inferior vena cava model); assay type: in vivo, rat (Male Wistar); conditions: for % id/g (clot) / Rel. Conc. (cpm/g of clot by dose/g animal): sacrificed after 60 min
Experimental: The rats (Male Wistar, 250–350 g) were anaesthetised with 15% urethane. After laparotomy, the vena cava was isolated and freed of surrounding fat tissue. […] The average weight of the clots formed in this model was around 27 mg, n=32, (5–50 mg range). The compounds were injected 5 min (fresh clot) and 60 min (aged clot) post-induction. After 60 min the animals were sacrificed and the clot removed, weighed and counted. Other tissues e.g. blood, lung, heart, were also dissected and counted. The uptake of tracer into the clot was determined as the relative concentration (cpm/g of clot by dose/g animal) and clot to background tissue.

[3] = Aged Clots: injected 60 min post-induction
[4] = Fresh Clots: injected 5 min post-induction

## Ac-YEVHHQKLVFFG-Pn216 (N-acetyl; C-terminal Pn216 chelator, 99mTc) [^99mTc-Cmpd 49]
[1]; % retained (with thrombin) - % retained (no thrombin)
  % specific uptake: 31.5%
[1]; control without thrombin and calcium chloride (non-specific binding)
  % retained (no thrombin): 1.6%
[1]; human plasma clot, with thrombin, 60 minutes, ca. 20° C.
  % retained (with thrombin): 33.1%
[2]; Aged Clots
  Clot/blood: 4
  Clot/heart: 29
  Clot/liver: 19
  Clot/lung: 9
[2]; [3]
  % id/g (clot): 1.2 ± 0.5 % id/g
  Rel. Conc. (cpm/g of clot by dose/g animal): 3.9 ± 1.6
[2]; Fresh Clots
  Clot/blood: 4
  Clot/heart: 16
  Clot/liver: 4
  Clot/lung: 6
[2]; [4]
  % id/g (clot): 2.6 ± 1.1 % id/g
  Rel. Conc. (cpm/g of clot by dose/g animal): 8.5 ± 3.7
